Experimental data taken from US20240415918A1, “Polypeptide and its use as a CCK receptor agonist/antagonist” (Centre for Regenerative Medicine & Health, Hong Kong …, priority 2021, published 2024).

Target: T1, CCK-B receptors (CHO-CCK) (Homo sapiens, UniProt P32239)
T1 construct: expressed in transfected cells; host or cells: CHO (CHO-CCK model cells)
T1 sequence (P32239 1-447): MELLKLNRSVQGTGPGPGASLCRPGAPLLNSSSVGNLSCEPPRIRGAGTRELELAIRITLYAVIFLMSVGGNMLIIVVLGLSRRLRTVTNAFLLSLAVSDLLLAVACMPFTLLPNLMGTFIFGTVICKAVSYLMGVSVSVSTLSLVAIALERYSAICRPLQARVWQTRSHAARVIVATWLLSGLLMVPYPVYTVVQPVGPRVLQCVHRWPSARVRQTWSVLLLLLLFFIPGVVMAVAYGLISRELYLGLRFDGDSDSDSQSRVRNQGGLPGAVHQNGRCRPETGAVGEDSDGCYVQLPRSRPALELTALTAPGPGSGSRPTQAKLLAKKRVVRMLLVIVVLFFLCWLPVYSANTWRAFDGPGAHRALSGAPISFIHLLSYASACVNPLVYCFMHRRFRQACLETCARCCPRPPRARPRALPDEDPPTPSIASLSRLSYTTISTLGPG
Assay: Calcium flux (Fluo-8) agonist test on CHO-CCK model cells
Format: cell-based
Description: • To detect changes in intracellular calcium ion concentration after the compound acts on model cells containing CCK-B receptors (CHO-CCK).
• 1. The compound was formulated to a 10 mM mother liquor with DMSO, and then diluted into a series of 9 concentrations with a 3-fold gradient to form a 1000× stock solution.
2.1 Agonist • The compound stock solution was subjected to 200-fold dilution with HHBS buffer to form a 5× working solution.
• 1. Plate CHO-CCK cells in a 96-well plate with media containing 1% FBS, 30,000 cells/well/100 μL, and incubate overnight at 37° C. • 2. Prepare 1×Fluo-8 analysis buffer: mix 9 mL of HHBS, 1 mL of 10× Pluronic F127 Plus and 20 μL of Fluo-8 thoroughly for later use. • 3. Add Fluo-8 dye working solution to the cell plate, 100 μL/well. First incubate in a 37° C. incubator for 30 min, and then take it out and incubate at room temperature in the dark for 30 min. • 4. In the process of incubating cells, the compounds to be detected were prepared with HHBS. • 5.
The agonism/antagonism EC50 of the compound can be obtained by plotting the fitting curve with the agonism/antagonism percentage as Y-axis and the concentration of the compound as X-axis.

% Act-Ave @ 1 nM (compound at 1 nM): 68.19%
% Act-Ave @ 50 nM (compound at 50 nM): 94.51%
SMILES: CSCC[C@H](NC(=O)[C@@H](N)Cc1c[nH]c2ccccc12)C(=O)N[C@@H](CC(=O)O)C(=O)N[C@@H](Cc1ccccc1)C(N)=O [HT-9, Trp-Met-Asp-Phe-NH2]
